Measured affinities in a library of Ab-95 light chain variants

Binding partner: SARS-CoV-2 spike HR2 peptide, sequence PDVDLGDISGINAS.

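The parent was found by panning a naive human phage display library on the peptide. Library AAYL52 holds single substitutions and randomly drawn double and triple substitutions in the CDRs. The scFvs were displayed on barcoded MATa yeast, the peptide on MATalpha yeast. Pairs that bind mate more often; barcode pairs of the diploids are counted by sequencing. Read counts were normalised to the haploid input and turned into Kd by a linear fit to BCL2-family pairs of known affinity, for each replicate. The assay was run in three technical replicates.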

Each scFv is VH, a (GGGGS)3 linker, VL, as in the parent Ab-95, and differs from it in the CDRs of the light chain only.
VH: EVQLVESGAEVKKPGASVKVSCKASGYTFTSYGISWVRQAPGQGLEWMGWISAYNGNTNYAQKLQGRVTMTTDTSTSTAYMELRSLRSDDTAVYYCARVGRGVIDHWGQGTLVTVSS
VL: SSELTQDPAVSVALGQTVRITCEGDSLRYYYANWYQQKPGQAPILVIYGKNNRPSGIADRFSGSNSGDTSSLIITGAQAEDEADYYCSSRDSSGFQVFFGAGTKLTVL

Variants are written as CDR1, CDR2 and CDR3 of the light chain (limits as in the source). Parent: EGDSLRYYYAN, GKNNRPS, SSRDSSGFQVF.
Numbers give log10(Kd / nM), so 0 is 1 nM and 3 is 1 µM. Smaller is tighter.
The mean shown is taken over the replicates in which the pair was detected.
"nd" marks a missing value. The strain was present, yet no cells mated with the target were sequenced in any replicate, which points to weak or no binding.
The list is sorted by this average, lowest first, undetected variants last.
As a blank, each scFv also met three strains without target: over library AAYL52, 28% of these pairings were detected, typically at 3.91 and seldom below 2.90. Also given: how often the same scFv was detected with the empty control strains.
In this assay the parent's reference entry averaged 2.31; its copy inside this library read 2.25.

1.07 (3 of 3 replicates; controls 5 of 9) for EGDSLRYYEAN | GKNNRPS | LSRDSSGFQVD.
1.79 (3 of 3 replicates; controls 4 of 9) for EGDSLRYYYAN | GKNNRPS | SSRDSSVFAPF.
2.04 (3 of 3 replicates; controls 4 of 9) for EGDSLRKRYAN | GKNNRPG | SSRDSSGFQVF.
2.54 (3 of 3 replicates; controls 2 of 9) for EGDSLRYKYAN | GKQNRPS | SSRDSSGFQVH.
2.74 (3 of 3 replicates; controls 5 of 9) for EGDSLRYEYAN | GKNSNPS | SSRDSSGFQVF.
2.76 (3 of 3 replicates; controls 4 of 9) for EGDSLRYYYAN | GKNNRPS | SWRDSSGFEWF.
2.88 (2 of 3 replicates; controls 2 of 9) for EYDSLRYYYAN | GKNNRNS | SSRDSFGFQVF.
2.91 (3 of 3 replicates; controls 3 of 9) for EGDTLRHYYAN | GKNNTPS | SSRDSSGFQVF.
3.01 (2 of 3 replicates; controls 1 of 9) for EGDTLRYYYAN | GKNNRPH | SSRDSSKFQVF.
3.13 (3 of 3 replicates; controls 4 of 9) for ECDSRRYYYAN | GKNNRPS | STRDSSGFQVF.
3.16 (3 of 3 replicates; controls 4 of 9) for EGFSLRYYYAN | GKNNRSS | SSRDSLGFQVF.
3.19 (1 of 3 replicates; controls 3 of 9) for RGDSLRYYYAN | GKKNRPS | SSLDSSGFQVF.
3.27 (3 of 3 replicates; controls 0 of 9) for EGDSLRYYYAN | GKHNRPS | DSRDSSSFQVF.
3.29 (2 of 3 replicates; controls 2 of 9) for EGDSLRYYYAN | GKNNFPQ | SSRDSSGFQVF.
3.41 (1 of 3 replicates; controls 1 of 9) for EYDSLRYYYAN | GKNNDPS | NSRDSSGFQVF.
3.46 (1 of 3 replicates; controls 3 of 9) for DGDSLRRYYAN | GKNNIPS | SSRDSSGFQVF.
3.55 (2 of 3 replicates; controls 1 of 9) for EGDSLRYYYAN | TKNNRPS | SSRDSSGFQVH.
3.57 (2 of 3 replicates; controls 5 of 9) for EGDSLRYIYAN | TKNNRPS | SSRDTSGFQVF.
3.77 (3 of 3 replicates; controls 7 of 9) for EGDSLRYYYAN | MSNNRPA | SSRDSSGFQVF.
3.77 (2 of 3 replicates; controls 3 of 9) for EGDSLRYYYAA | GKDNRPS | SSRDHSGFQVF.
3.89 (3 of 3 replicates; controls 6 of 9) for EADSLRYYYAN | GSNNRPS | SSRDSSGFQVF.
4.01 (1 of 3 replicates; controls 3 of 9) for EGDSLRYYYCN | GKNFRPS | SSRYSSGFQVF.
4.08 (1 of 3 replicates; controls 0 of 9) for VGDSLRYYYAN | GKNNRPS | SSRDSHGFCVF.
4.25 (1 of 3 replicates; controls 5 of 9) for EGDSLRYYYAN | MKNNHPS | SSRDSSGFQVC.
4.44 (1 of 3 replicates; controls 4 of 9) for EGDSFRYYYAN | TKNNRPS | WSRDSSGFQVF.
4.44 (1 of 3 replicates; controls 0 of 9) for EGDSLRYYYAN | GKHARPS | HSRDSSGFQVF.
4.53 (1 of 3 replicates; controls 1 of 9) for YGDSLRYYYAN | GKNNRFS | SPRDSSGFQVF.
4.78 (2 of 3 replicates; controls 2 of 9) for EKDSLRYYYAN | GKMNRPS | SSVDSSGFQVF.
5.61 (2 of 3 replicates; controls 3 of 9) for EGDSLRYMYAN | GKWNRPS | SSSDSSGFQVF.
nd (0 of 3 replicates; controls 2 of 9) for EGDELRYYYAN | GKNNRPS | NSRDSSGFKVF.
nd (0 of 3 replicates; controls 1 of 9) for EGDSLRYYYDN | GKNNRPS | SSRDSSGWQVF.

Top 4 of the variants detected in all replicates, tightest first:

CDR-L1,CDR-L2,CDR-L3,"log10 Kd (nM), mean",replicates with signal,signal with controls
EGDSLRYYEAN,GKNNRPS,LSRDSSGFQVD,1.07,3 of 3,5 of 9
EGDSLRYYYAN,GKNNRPS,SSRDSSVFAPF,1.79,3 of 3,4 of 9
EGDSLRKRYAN,GKNNRPG,SSRDSSGFQVF,2.04,3 of 3,4 of 9
EGDSLRYKYAN,GKQNRPS,SSRDSSGFQVH,2.54,3 of 3,2 of 9

The measurements come from Engelhart et al. 2022 (doi:10.1038/s41597-022-01779-4) through the FLAb antibody collection.